Experimental data taken from patent publication US10072034B2, “Kinase inhibitors” (Respivert Limited, priority 2016, dated 2018).

Each molecule was assayed on IL-8 release in PBMCs (assay: LPS-induced IL-8 release in PBMC cells (assay (b))). Conditions: Homo sapiens, PBMC, LPS-stimulated PBMCs.
Assay type: cell-based, human
Text: Peripheral blood mononuclear cells (PBMCs) from healthy subjects are separated from whole blood using a density gradient (Lymphoprep, Axis-Shield Healthcare). […] The supernatant is harvested for determination of IL-8 and TNFα concentrations by sandwich ELISA (Duo-set, R&D systems) and read on the fluorescence microplate reader (Varioskan® Flash, ThermoFisher Scientific).

| Compound | IC50 [nM] |
| --- | --- |
| COc1cc(Nc2cc(Oc3ccc(NC(=O)Nc4cc(C(C)(C)C)cc(NS(C)(=O)=O)c4OC)c4ccccc34)ccn2)cc(OCCOCCOC(C)C(=O)O)c1 (single isomer, unassigned) [20(a)] | 10.4 |
| CNC(=O)c1cc(C(C)(C)C)cc(NC(=O)Nc2ccc(Oc3ccnc(Nc4cc(OC)cc(OCCOCCOCC(=O)O)c4)c3)c3ccccc23)c1OC [Example 7] | 20.8 |
| COc1cc(Nc2cc(Oc3ccc(NC(=O)Nc4cc(C(C)(C)C)cc(N(C)S(C)(=O)=O)c4OC)c4ccccc34)ccn2)cc(OCCOCCOCC(=O)O)c1 [Example 11, 2-(2-(2-(3-((4-((4-(3-(5-(tert-Butyl)-2-methoxy-3-(N-methylmethylsulfonamido)phenyl)ureido)-naphthalen-1-yl)oxy)pyridin-2-yl)amino)-5-methoxyphenoxy)ethoxy)ethoxy)acetic acid] | 11.7 |
| COc1cc(Nc2cc(Oc3ccc(NC(=O)Nc4cc(C(C)(C)C)cc(NS(C)(=O)=O)c4OC)c4ccccc34)ccn2)cc(OCCOCCOC(C)C(=O)O)c1 (stereo not shown) [Example 14] | 7.3 |
| COc1cc(Nc2cc(Oc3ccc(NC(=O)Nc4cc(C(C)(C)C)on4)c4ccccc34)ccn2)cc(OCCOCCOCC(=O)O)c1 [Example 17, 2-(2-(2-(3-((4-((4-(3-(5-(tert-Butyl)isoxazol-3-yl)ureido)naphthalen-1-yl)oxy)pyridin-2-yl)amino)-5-methoxyphenoxy)ethoxy)ethoxy)acetic acid] | 17.2 |
| COc1cc(Nc2cc(Oc3ccc(NC(=O)Nc4cc(C(C)(C)C)cc(NS(C)(=O)=O)c4OC)c4ccccc34)ccn2)cc(OCCOCCOCc2nnn[nH]2)c1 [Example 23, N-(3-(3-(4-((2-((3-(2-(2-(1H-Tetrazol-5-yl)methoxyethoxy)ethoxy)-5-methoxyphenyl)amino)-pyridin-4-yl)oxy)naphthalen-1-yl)ureido)-5-(tert-butyl)-2-methoxyphenyl)methanesulfonamide] | 29.2 |

Same assay, conditions: LPS-stimulated PBMCs

| Compound | IC50 [nM] |
| --- | --- |
| COc1cc(Nc2cc(Oc3ccc(NC(=O)Nc4cc(C(C)(C)C)cc(NS(C)(=O)=O)c4OC)c4ccccc34)ccn2)cc(OCCOCCOC(C)C(=O)O)c1 (single isomer, unassigned) [20(b)] | 19.1 |
